From ChEMBL document CHEMBL1155439, “Transient receptor potential ankyrin 1 (TRPA1) channel as emerging target for novel analgesics and anti-inflammatory agents” (J Med Chem, 2010) come the findings set out here.

Experiment [1] addresses T1, Transient receptor potential cation channel subfamily A member 1 (Homo sapiens, UniProt O75762). The experiment is described as follows: Antagonist activity at human TRPA1 channel assessed as inhibition of URB597-induced intracellular calcium influx.
Experiment [2] has as its target T1, Transient receptor potential cation channel subfamily A member 1. Nature of the experiment: Antagonist activity at human TRPA1 channel assessed as inhibition of allyl isothiocyanate-induced intracellular calcium influx.
For experiment [3] the target is unchanged. Nature of the experiment: Antagonist activity at human TRPA1 channel assessed as inhibition of cynnamaldehyde-induced response.
Experiment [4] has the same target. Nature of the experiment: Antagonist activity at human TRPA1 channel assessed as inhibition of trinitrophenol-induced response.

For `Cc1ccc(C(=O)NC(Sc2ccc([N+](=O)[O-])cc2)C(Cl)(Cl)Cl)cc1` (centres undefined), the IC50 in experiment [1] is 0.85 µM; in experiment [2] it was 2 µM; in experiment [3], 2.5 µM; in experiment [4], 0.36 µM.
